# Assay results published in paper PMC8623468.
# B1: Recombinant human L-ferritin homopolymer (protein)
# chain: MSSQIRQNYSTDVEAAVNSLVNLYLQASYTYLSLGFYFDRDDVALEGVSHFFRELAEEKREGYERLLKMQNQRGGRALFQDIKKPAEDEWGKTPDAMKAAMALEKKLNQALLDLHALGSARTDPHLCDFLETHFLDEEVKLIKKMGDHLTNLHRLGGPEAGLGEYLFERLTLKHD
# Columns and labels:
# P02792 [1] = experiment: SEC; ferritin samples after gold nanoparticle synthesis (FT-AuNP) on Superdex 200 Increase 10/300 GL, absorbance at 280 and 550 nm; cage monomers to cage oligomers; peak areas, semiquantitative
# P02792 [2] = experiment: SEC; apoferritin samples on Superdex 200 Increase 10/300 GL, absorbance at 280 nm; cage monomers to cage oligomers; peak areas, semiquantitative
protein,measurement,setting,value
B1,oligomer fraction of the SEC peak areas,P02792 [1],25.6%
same,oligomer fraction of the SEC peak areas,P02792 [2],39.9%
